# Apparent affinities of Ab-91 variants for a coronavirus HR2 peptide

From the AlphaSeq antibody data of Engelhart et al. 2022 (doi:10.1038/s41597-022-01779-4), copy in the FLAb collection.

All variants were tested on one target, the spike HR2 peptide PDVDLGDISGINAS (SARS-CoV-2).

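The parent was found by panning a naive human phage display library on the peptide. In library AAYL51, one, two or three CDR residues were substituted; doubles and triples were drawn at random. AlphaSeq pools MATa yeast showing the antibodies with MATalpha yeast showing the peptide. After mating in shaken culture at 30 °C for 16 h, diploids were selected and their barcode pairs sequenced. Each replicate has its own calibration line, from reference interactions of the BCL2 family. Each pool was mated in three replicate cultures.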

The variants keep the light chain, the linker and the frameworks of Ab-91 (scFv order VL, the linker GGGGSGGGGSGGGGS, VH).
VL: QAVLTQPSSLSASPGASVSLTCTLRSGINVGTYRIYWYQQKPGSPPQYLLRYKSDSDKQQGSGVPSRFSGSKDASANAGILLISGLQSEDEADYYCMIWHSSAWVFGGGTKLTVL
VH: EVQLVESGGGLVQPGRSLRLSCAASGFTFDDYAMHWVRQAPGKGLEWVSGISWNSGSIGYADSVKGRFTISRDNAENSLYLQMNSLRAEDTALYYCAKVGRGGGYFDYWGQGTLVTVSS

Changes read parent residue, position, new residue, counted from the first residue of the VH shown.
Every variant below is changed at T28 of the VH (sequential numbering).
Each Kd is an estimate from the mating assay, the geometric mean of the replicates in which the pair was seen; lower is stronger.
An entry "nd" has no value in the source: the pair was not observed among the diploids in any replicate. This suggests poor binding but is not conclusive.

With T28R+R101C the result was 98 µM (3 of 3 replicates; controls 9 of 9).
With T28N+M34W+G59V the result was 180 µM (1 of 3 replicates; controls 5 of 9).
With T28L+Y32T+D62E the result was 510 nM (3 of 3 replicates; controls 5 of 9).
With T28L+F29T+D30K the result was 1.2 µM (3 of 3 replicates; controls 4 of 9).
With T28R+A33M the result was 52 µM (3 of 3 replicates; controls 7 of 9).
With T28K+K65H+Y105F the result was 4.3 nM (3 of 3 replicates; controls 1 of 9).
With T28F+Y60I+D107R the result was nd (0 of 3 replicates; controls 2 of 9).
With T28W+S55M+D62T the result was nd (0 of 3 replicates; controls 0 of 9).
With T28I+A61H+Y105H the result was nd (0 of 3 replicates; controls 1 of 9).
With G26V+T28M+D107S the result was 44 µM (1 of 3 replicates; controls 4 of 9).
With T28I+S63V+V64L the result was 14 µM (1 of 3 replicates; controls 0 of 9).
With T28M+G103C+Y108C the result was 540 µM (2 of 3 replicates; controls 7 of 9).
With T28W+M34P the result was nd (0 of 3 replicates; controls 1 of 9).
With T28Y+A61F the result was nd (0 of 3 replicates; controls 0 of 9).
With T28G+N54M+D107S the result was 9.7 µM (1 of 3 replicates; controls 0 of 9).
With T28K+N54T+V64G the result was nd (0 of 3 replicates; controls 0 of 9).
With T28S+N54S+V99S the result was 270 nM (3 of 3 replicates; controls 1 of 9).
With T28F+S63L+Y105D the result was 130 µM (2 of 3 replicates; controls 7 of 9).
With T28W+S57D+A61D the result was 2.4 µM (1 of 3 replicates; controls 1 of 9).
With T28W+G50M+S63N the result was nd (0 of 3 replicates; controls 1 of 9).
With T28G+D62H+K65C the result was 4.5 µM (2 of 3 replicates; controls 3 of 9).
With T28D+F29T+Y105F the result was 12 µM (1 of 3 replicates; controls 0 of 9).
With T28S+K65W+G103Q the result was 11 µM (1 of 3 replicates; controls 5 of 9).
With T28Y+Y32P+A33R the result was nd (0 of 3 replicates; controls 3 of 9).
With G26L+T28Y+D62V the result was 42 µM (3 of 3 replicates; controls 5 of 9).
With T28A+A33L+S55M the result was nd (0 of 3 replicates; controls 2 of 9).
With T28R+G50F+Y105I the result was 37 µM (2 of 3 replicates; controls 1 of 9).
With T28Y+G50R+N54G the result was nd (0 of 3 replicates; controls 0 of 9).
With T28W+Y60D+F106P the result was 62 µM (2 of 3 replicates; controls 1 of 9).
With G26F+T28D the result was 32 nM (3 of 3 replicates; controls 6 of 9).
With T28E+M34D+V99C the result was 35 µM (1 of 3 replicates; controls 0 of 9).
With T28C+S63R+Y108A the result was 71 nM (3 of 3 replicates; controls 2 of 9).
With T28M+G104W+F106E the result was 1.3 µM (3 of 3 replicates; controls 7 of 9).
With T28K+I51D+S55V the result was nd (0 of 3 replicates; controls 0 of 9).
With T28V+A61F+G102R the result was nd (0 of 3 replicates; controls 0 of 9).
With T28Y+D30P+V99Y the result was nd (0 of 3 replicates; controls 1 of 9).
With G26I+T28P+G59Q the result was 4.4 µM (1 of 3 replicates; controls 1 of 9).
With T28G+A33R+G102I the result was nd (0 of 3 replicates; controls 1 of 9).
With T28S+F29M+G103P the result was 270 µM (1 of 3 replicates; controls 0 of 9).
With T28D+S63Y+V99R the result was 57 µM (1 of 3 replicates; controls 3 of 9).
With T28S+A33H+G100W the result was 130 µM (1 of 3 replicates; controls 1 of 9).
With G26P+T28C+G100V the result was 21 µM (1 of 3 replicates; controls 1 of 9).
With T28H+Y32D+Y108R the result was 29 µM (2 of 3 replicates; controls 2 of 9).
With T28L+W53C+D107V the result was 1.6 µM (3 of 3 replicates; controls 0 of 9).
With T28W+S55I+D107Y the result was 7.5 µM (1 of 3 replicates; controls 1 of 9).
With T28L+Y32G+G104S the result was nd (0 of 3 replicates; controls 1 of 9).
With T28L the result was 1.8 mM (1 of 3 replicates; controls 2 of 9).
With F27Y+T28C+G56H the result was 390 nM (1 of 3 replicates; controls 0 of 9).
With T28P+V99P the result was 230 µM (3 of 3 replicates; controls 7 of 9).
With T28Y+S57W+S63G the result was nd (0 of 3 replicates; controls 1 of 9).
With T28S+M34N+W53V the result was 9.0 µM (1 of 3 replicates; controls 4 of 9).
With T28D+S57P+F106W the result was 69 µM (2 of 3 replicates; controls 3 of 9).

Again, the first 3 entries without any signal:

For T28F+Y60I+D107R, the assay gave nd (0 of 3 replicates; controls 2 of 9).
For T28W+S55M+D62T, the assay gave nd (0 of 3 replicates; controls 0 of 9).
For T28I+A61H+Y105H, the assay gave nd (0 of 3 replicates; controls 1 of 9).

Parent in this assay: reference entry 72 nM, copy in this library 7.5 nM.
Background: pairings of library AAYL51 with three empty control strains gave a value in 21% of cases (median 34 µM, 5th percentile 1.8 µM). Values in that range, when seen in few replicates, are hard to tell from nonspecific mating. The control count says in how many pairings with the empty strains this scFv gave a signal.